The results in this text go back to patent US11713337B2, “Peptide, compositions and method for delivery of agents into cells and tissues” (priority 2019, dated 2023).

This series deals with retina. The series can be described thus: Retinal penetration of FAM-labeled Nuc1 after intravitreal injection. As to the method:
Intravitreal and subretinal injections: Mice were anesthetized by injecting intraperitoneally a cocktail mixture containing Ketamine (100 mg/kg, Phoenix™, St Joseph, Mo.) and Xylazine (10 mg/kg, Lloyed, Shenandoah, Iowa) followed by topical application of 0.5% proparacaine hydrochloride (Akorn Inc., Lake Forest, Ill., USA) for topical analgesia to the cornea. Mice were kept warm during anesthesia. lntravitreal and subretinal injections were performed using a 32-gauge needle and a 5μI glass syringe, as previously described (Cashman et al., 2015). […] Four hours post injection (as indicated), eyes were enucleated and fixed in 4% paraformaldehyde. […] Retinal cryosections were taken using a Micron 550 cryostat.
Four hours post injection, eyes of these mice were enucleated and fixed in 4% paraformaldehyde. Retinal cryosections were generated using a Micron 550 cryostat and sections were imaged using a fluorescent microscope.

For ASIKVAVSAGGDKPRR [Nuc1], the “penetration into the retina compared with previously described retinal penetrating peptides” value is recorded as “substantially superior to any of our previously described retinal penetrating peptides including POD”.
